## scFv variants of Ab-95 (light chain) against a SARS-CoV-2 spike peptide

The measurements come from Engelhart et al. 2022 (doi:10.1038/s41597-022-01779-4) through the FLAb antibody collection.

The target is the same throughout: PDVDLGDISGINAS, from the HR2 region of SARS-CoV-2 spike.

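The starting antibody came from a phage panning campaign against this peptide. Variants in AAYL52 differ from the parent at up to three CDR positions; double and triple changes were sampled at random. Affinity was read by AlphaSeq, a pooled yeast mating assay with surface-displayed partners. Pairs that bind mate more often; barcode pairs of the diploids are counted by sequencing. Scores were corrected for input abundance and mapped to Kd with protein pairs of known affinity run in the same pool. There are three technical replicates.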

The variants keep the heavy chain, the linker and the frameworks of Ab-95 (scFv order VH, a (GGGGS)3 linker, VL).
VH: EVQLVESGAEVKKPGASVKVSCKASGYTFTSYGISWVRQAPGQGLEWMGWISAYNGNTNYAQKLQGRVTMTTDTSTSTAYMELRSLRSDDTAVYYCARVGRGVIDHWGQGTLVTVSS
VL: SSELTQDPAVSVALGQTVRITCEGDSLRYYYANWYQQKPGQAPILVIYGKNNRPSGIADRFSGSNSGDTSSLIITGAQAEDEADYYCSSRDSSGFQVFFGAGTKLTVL

Changes read parent residue, position, new residue, counted from the first residue of the VL shown.
Every variant below is changed at Y30 of the VL (sequential numbering).
Scale: log10 of Kd in nM, estimated from mating counts; low values are strong binders.
Averages over replicates are reported, and they cover detected replicates only.
"nd" marks a missing value. The strain was present, yet no cells mated with the target were sequenced in any replicate, which points to weak or no binding.
Parent in this assay: reference entry 2.31, copy in this library 2.25.
Three control strains display no target. For library AAYL52, 28% of the pairings with them gave a signal, with a median of 3.91 and one signal in twenty below 2.90, so weak values seen in few replicates may be background.

* Y30N S55T V97H: 0.77 (3 of 3 replicates)
* Y30G P54R: 0.97 (3 of 3 replicates)
* Y30H S88T: 1.64 (3 of 3 replicates)
* G24E Y30W G94A: 3.96 (3 of 3 replicates)
* Y29Q Y30M S92E: 1.28 (3 of 3 replicates)
* Y30P S55M F98Q: 1.52 (3 of 3 replicates)
* G24M L27F Y30R: 2.82 (3 of 3 replicates)
* G24P Y30W Y31F: 3.44 (1 of 3 replicates)
* Y30N N51A R90D: 2.29 (3 of 3 replicates)
* G24K Y30C R90D: 4.15 (1 of 3 replicates)
* Y29F Y30L N51M: 3.83 (2 of 3 replicates)
* L27I Y30G V97P: 1.70 (3 of 3 replicates)
* Y30S A32W S55F: 3.34 (1 of 3 replicates)
* Y30E N52Q S88P: 4.65 (3 of 3 replicates)
* Y30E A32Q K50R: 5.09 (1 of 3 replicates)
* Y30R R90G G94I: 1.85 (3 of 3 replicates)
* Y30T S89G F98H: 1.46 (3 of 3 replicates)
* Y30M R90P: 2.39 (3 of 3 replicates)
* D25S Y30A S88A: 1.63 (3 of 3 replicates)
* E23P Y30H R53F: nd (0 of 3 replicates)
* Y30R: 1.93 (3 of 3 replicates)
* E23H Y30V R53G: 3.36 (2 of 3 replicates)
* L27H Y30F F98R: 2.89 (2 of 3 replicates)
* Y30H R90L F98M: 2.67 (3 of 3 replicates)
* Y30I S89V: 2.50 (3 of 3 replicates)
* S26M Y30K F95K: 3.76 (3 of 3 replicates)
* D25I Y30N P54V: 1.02 (3 of 3 replicates)
* Y29N Y30W G49K: 4.25 (1 of 3 replicates)
* Y30D A32N G94P: nd (0 of 3 replicates)
* Y30I A32I: 5.40 (1 of 3 replicates)
* D25F Y30F P54M: nd (0 of 3 replicates)
* Y29A Y30P S88A: 2.24 (3 of 3 replicates)
* D25T Y30R S89R: nd (0 of 3 replicates)
* Y30L R90C S93C: 2.37 (3 of 3 replicates)
* Y30S N52S: 0.74 (3 of 3 replicates)
* Y29H Y30K N33F: 2.97 (3 of 3 replicates)
* Y30C S89I V97W: nd (0 of 3 replicates)
* E23D Y30A S55R: 2.04 (3 of 3 replicates)
* E23F Y30C N52L: 3.71 (2 of 3 replicates)
* R28M Y30F N51G: 2.78 (3 of 3 replicates)
* Y30D S92N Q96V: 3.33 (1 of 3 replicates)
* Y30R F95D: 2.52 (3 of 3 replicates)
* G24N Y30G P54M: 2.02 (3 of 3 replicates)
* Y30I D91C Q96V: 2.91 (3 of 3 replicates)
* Y30F N51K F95L: 3.35 (2 of 3 replicates)

The closing 7 entries, repeated:

changes,mean log10 Kd (nM),detected
E23F Y30C N52L,3.71,2/3
R28M Y30F N51G,2.78,3/3
Y30D S92N Q96V,3.33,1/3
Y30R F95D,2.52,3/3
G24N Y30G P54M,2.02,3/3
Y30I D91C Q96V,2.91,3/3
Y30F N51K F95L,3.35,2/3